Sequences of proteins named here, by UniProt entry; tags and fusion partners are left off.
UniProt Q08881, whole entry: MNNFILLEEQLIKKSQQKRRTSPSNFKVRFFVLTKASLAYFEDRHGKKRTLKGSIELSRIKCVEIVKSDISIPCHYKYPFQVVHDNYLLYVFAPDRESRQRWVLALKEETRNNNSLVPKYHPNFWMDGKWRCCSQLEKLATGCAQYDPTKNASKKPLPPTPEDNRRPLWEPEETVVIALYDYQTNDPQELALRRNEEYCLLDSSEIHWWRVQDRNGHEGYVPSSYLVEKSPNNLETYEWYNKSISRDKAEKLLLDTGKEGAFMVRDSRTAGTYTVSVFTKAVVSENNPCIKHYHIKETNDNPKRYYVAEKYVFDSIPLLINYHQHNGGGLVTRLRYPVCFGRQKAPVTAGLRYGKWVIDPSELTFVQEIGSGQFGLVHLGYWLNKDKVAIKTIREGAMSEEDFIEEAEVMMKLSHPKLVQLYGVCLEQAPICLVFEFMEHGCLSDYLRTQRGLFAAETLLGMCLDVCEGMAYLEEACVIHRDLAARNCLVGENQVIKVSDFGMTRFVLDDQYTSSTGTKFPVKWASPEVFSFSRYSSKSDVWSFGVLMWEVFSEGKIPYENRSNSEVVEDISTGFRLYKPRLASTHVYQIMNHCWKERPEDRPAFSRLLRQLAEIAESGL

The target of the test is hITK enzyme (FLAG-tagged full-length hITK) (Homo sapiens, UniProt Q08881). Kind of test: ITK inhibitory activity (HTRF kinase assay, biotinylated GST-SLP76 substrate). The following applies: read-out: ITK IC50; IC50 calculated from the 2 test compound concentrations sandwiching 50% ITK inhibitory rate.
Usually IC50 stands for the concentration needed to halve the response being measured. Take `CN(C(=O)CC(C)(C)C)c1ccc2cc(-c3n[nH]c4c3CCC(C)(C)C4)[nH]c2c1`: the IC50 was 13 nM.

For the compound `CCN(C(=O)CN1C(=O)COC[C@H]1C)c1ccc2cc(-c3n[nH]c4c3CCC(C)(C)C4)[nH]c2c1`, the IC50 was 1 nM.

`CN(C(=O)CC1CCCCO1)c1ccc2cc(-c3n[nH]c4c3CCC(C)(C)C4)[nH]c2c1` (stereo not drawn): the IC50 was 4 nM.

(Values after patent US8299070B2, “Indole compounds and pharmaceutical use thereof” (Japan Tobacco Inc., priority 2009, dated 2012).)
